Data from ChEMBL document CHEMBL1142826, “Structure based approach to the design of bicyclic-1H-isoindole-1,3(2H)-dione based androgen receptor antagonists” (Bioorg Med Chem Lett, 2005).

By UniProt entry, the sequences of proteins in these tests, tags left out. Where a name states a change or a piece, a line headed by the entry shows the natural chain unless it says otherwise.
UniProt P10275: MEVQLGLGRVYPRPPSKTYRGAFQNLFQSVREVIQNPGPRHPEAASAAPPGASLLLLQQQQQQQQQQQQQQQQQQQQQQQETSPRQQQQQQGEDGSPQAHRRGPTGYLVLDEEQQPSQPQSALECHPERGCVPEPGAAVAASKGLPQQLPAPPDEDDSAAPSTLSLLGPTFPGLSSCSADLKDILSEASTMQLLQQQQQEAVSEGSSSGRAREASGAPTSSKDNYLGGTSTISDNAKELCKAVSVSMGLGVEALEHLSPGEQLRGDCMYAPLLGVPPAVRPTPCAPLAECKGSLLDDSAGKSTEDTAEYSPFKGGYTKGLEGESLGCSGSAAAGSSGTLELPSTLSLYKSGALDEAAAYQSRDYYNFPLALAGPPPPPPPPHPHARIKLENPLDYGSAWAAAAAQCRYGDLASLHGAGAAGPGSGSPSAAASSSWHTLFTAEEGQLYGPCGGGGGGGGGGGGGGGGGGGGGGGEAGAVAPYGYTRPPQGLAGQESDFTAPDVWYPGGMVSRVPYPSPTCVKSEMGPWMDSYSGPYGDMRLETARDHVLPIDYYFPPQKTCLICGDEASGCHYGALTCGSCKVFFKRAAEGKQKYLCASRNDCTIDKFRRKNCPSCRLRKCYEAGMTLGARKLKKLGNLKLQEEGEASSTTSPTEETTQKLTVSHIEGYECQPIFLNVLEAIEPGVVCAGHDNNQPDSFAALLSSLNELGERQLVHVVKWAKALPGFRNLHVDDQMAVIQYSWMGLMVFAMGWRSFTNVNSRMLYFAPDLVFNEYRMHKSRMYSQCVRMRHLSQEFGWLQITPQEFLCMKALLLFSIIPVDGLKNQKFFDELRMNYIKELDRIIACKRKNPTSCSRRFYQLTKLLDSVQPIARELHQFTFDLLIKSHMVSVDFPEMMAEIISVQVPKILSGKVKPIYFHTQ

Target: Androgen receptor (Homo sapiens, UniProt P10275)
Experiment: Binding affinity for androgen receptor in human MDA-453 cells

Row | Structure (SMILES) | Ki [µM]
1 | Cc1cc(N2C(=O)[C@@H]3C4C=CC(CC4)[C@@H]3C2=O)ccc1Br | 0.171
2 | O=C1[C@@H]2C3C=CC([C@H]4C[C@@H]34)[C@@H]2C(=O)N1c1cccc(C(F)(F)F)c1 | 3.2
